Data: PMC12662848, “Phase Ib study of enzalutamide with venetoclax in patients with metastatic castration-resistant prostate cancer” (Cancer Chemotherapy and Pharmacology, 2025)

Details: male, human, in vivo
Description: Additional samples were collected prior to dosing on days 8, 15, 21, and 57 (Fig. 1A). Samples were centrifuged at approximately 1,000 × g, and plasma was stored at −70 °C or colder until analysis.
Plasma PK parameters were derived from the data by non-compartmental methods with WinNonlin (Certara, Princeton, NJ). Statistical analyses for PK parameter values were performed using SPSS 27.0 for Windows (SPSS Inc., Chicago, IL). Within patient variability in Cmin was calculated from the day 8 through day 57 data across doses by calculating 100 × the square root of the mean square within groups obtained after ANOVA of log-transformed values of these parameters with subject as a factor.

Q: Which “ENZA Cmin D0” value does the source give for `CNC(=O)c1ccc(N2C(=S)N(c3ccc(C#N)c(C(F)(F)F)c3)C(=O)C2(C)C)cc1F` [enzalutamide] here?
A: 11.7 (1.19) µg/mL

Q: What about the “MR (metabolic ratio) D0” value of the same compound?
A: 0.94 (1.43)

Q: And the “MR (metabolic ratio) D1” value (24 h)?
A: 0.95 (1.48)
